Measured values from patent US9062045B2, “Triazolopyridine compounds” (Novartis AG, priority 2012, dated 2015).

The compounds below were run on GTL16 cells (assay: GTL16 cell viability assay (CellTiter Glo)). Conditions: read-out: GTL-16 Proliferation IC50.

In order of rising IC50:
1. C/C(=N\OCCO)c1ccc2nnc(Sc3ccc4ncc(N5CCOCC5)cc4c3)n2c1 [Example 78, (E)-1-(3-((3-Morpholin-4-yl-quinolin-6-yl)thio)-[1,2,4]triazolo[4,3-a]pyridin-6-yl)ethanone O-(2-hydroxyethyl)oxime]  3 nM
2. Cn1cc(-c2cnc3ccc(Sc4nnc5c(F)cc(-c6cnn(C)c6)cn45)cc3c2)cn1 [Reference Example No. 66, 6-(8-fluoro-6-(1-methyl-1H-pyrazol-4-yl)-[1,2,4]triazolo[4,3-a]pyridin-3-ylthio)-3-(1-methyl-1H-pyrazol-4-yl)quinoline, reference compound]  3 nM
3. Cn1cc(-c2ccc3nnc(Sc4ccc5ncccc5c4)n3c2)cn1 [Reference Example No. 63, 6-(6-(1-methyl-1H-pyrazol-4-yl)-[1,2,4]triazolo[4,3-a]pyridin-3-ylthio)quinoline, reference compound]  8 nM
4. CC1COCCN1c1cnc2ccc(Sc3nnc4ccc(-c5cnn(C)c5)cn34)cc2c1 (centres unmarked) [Example 59, 3-Methyl-4-(6-(6-(1-methyl-1H-pyrazol-4-yl)-[1,2,4]triazolo[4,3-a]pyridin-3-ylthio)quinolin-3-yl)-morpholine]  11 nM
5. C/C(=N\OCCO)c1ccc2nnc(Sc3ccc4ncc(CN5CCOCC5)cc4c3)n2c1 [Example 80, (E)-1-(3-((3-(Morpholin-4-yl-methyl)quinolin-6-yl)thio)-[1,2,4]triazolo[4,3-a]pyridin-6-yl)ethanone O-(2-hydroxyethyl)oxime]  125 nM
